In assay [1] the target is T1, L-lactate dehydrogenase (Homo sapiens, UniProt V9HWB9). Put plainly: Inhibition of LDH in human MIAPaCa2 cells assessed as reduction in lactate production preincubated for 2 hrs measured after 30 mins by high throughput fluorescence assay. Type of assay: cell-based.
In assay [2] the target is T2, L-lactate dehydrogenase A chain (Homo sapiens, UniProt P00338).
Assay [3] has as its target T2, L-lactate dehydrogenase A chain. The source holds these as a separate data set.
Assay [4] relates to MIA PaCa-2. As to the kind of experiment: cells. To be noted: Homo sapiens, MIA PaCa-2, 48 h.
Assay [5] addresses T1, L-lactate dehydrogenase. Put plainly: Inhibition of LDH in human A673 cells assessed as reduction in lactate production preincubated for 2 hrs measured after 30 mins by high throughput fluorescence assay. It counts as cell-based.
The subject of assay [6] is A673. As to the kind of experiment: cells. The following applies: Homo sapiens, A673, 48 h.
For assay [7], the system named is A673. Put plainly: Cytotoxicity against human A673 cells assessed as long term cell growth inhibition measured every 4 hrs for 120 hrs by incucyte zoom live cell analysis. It counts as functional, cell-based.
For assay [8], the system named is MIA PaCa-2. Put plainly: Cytotoxicity against human MIAPaCa2 cells assessed as long term cell growth inhibition measured every 4 hrs for 120 hrs by incucyte zoom live cell analysis. It counts as functional, cell-based.

Some results are limits rather than exact numbers.

For `NS(=O)(=O)c1ccc(Cc2c(-c3ccc(F)c(F)c3)nn(-c3nc(C(=O)O)cs3)c2O)cc1`, the IC50 (usually the concentration at which inhibition is half-maximal) was greater than 57000 nM at L-lactate dehydrogenase [1], 672 nM in assay [2] and 672 nM in assay [3].
As to `NS(=O)(=O)c1ccc(Cc2c(-c3cccc(-c4ccccc4)c3)nn(-c3nc(C(=O)O)cs3)c2C(F)(F)F)cc1`, the IC50 in assay [2] and in assay [3] was 53 nM throughout.
Turning to `O=C(O)c1csc(-n2nc(-c3ccc(F)cc3)cc2C(F)(F)F)n1`, the IC50 in assay [2] is 32300 nM; in assay [3], 23400 nM.
On to `Nc1c(Cc2ccc(S(N)(=O)=O)cc2)c(-c2cccc(-c3ccccc3)c2)nn1-c1nc(C(=O)O)cs1`, for which the IC50 at L-lactate dehydrogenase [1] was 17700 nM; in assay [2] it was 65 nM; with MIA PaCa-2 [4], greater than 57000 nM; at L-lactate dehydrogenase [5], 9450 nM; in the assay with A673 [6] it was greater than 57000 nM; in assay [3], 65 nM.
Consider `NS(=O)(=O)c1ccc(Cc2c(-c3cccc(-c4ccccc4)c3)nn(-c3nc(C(=O)O)cs3)c2CC2CC2)cc1`, for which the values for the IC50 on L-lactate dehydrogenase [1], in the assay on A673 [7] and in the assay on MIA PaCa-2 [8] were 854 nM, 2230 nM and 1210 nM, respectively.
For `NS(=O)(=O)c1ccc(Cc2c(-c3cccc(-c4ccccc4)c3)nn(-c3nc(C(=O)O)cs3)c2O)cc1`, the IC50 in assay [2] and in assay [3] was 349 nM in each case.
`O=C1N[C@](c2ccc(N3CCOCC3)cc2)(c2ccsc2)CC(O)=C1Sc1ccccc1Cl`: the results for the IC50 with MIA PaCa-2 [4] and in the assay with A673 [6] were 1240 nM and 2630 nM, respectively.
With `NS(=O)(=O)c1ccc(Cc2c(-c3ccccc3)nn(-c3nc(C(=O)O)cs3)c2-c2cccnc2)cc1`, the IC50 in assay [2] and in assay [3] was 349 nM in each case.
For the compound `NS(=O)(=O)c1ccc(Cc2c(-c3cccc(-c4ccccc4F)c3)nn(-c3nc(C(=O)O)cs3)c2O)cc1`, the IC50 in assay [2] and in assay [3] was 754 nM throughout.
For `NS(=O)(=O)c1ccc(Cc2cn(-c3nc(C(=O)O)cs3)nc2-c2ccccc2)cc1`, the IC50 on L-lactate dehydrogenase [1] was 33500 nM; with MIA PaCa-2 [4], greater than 57000 nM; at L-lactate dehydrogenase [5], 25200 nM; with A673 [6] it was greater than 57000 nM.
Consider `NS(=O)(=O)c1ccc(Cc2c(-c3ccccc3)nn(-c3nc(C(=O)O)cs3)c2CC2CC2)cc1`, for which the IC50 in assay [2] and in assay [3] was 9 nM each time.
As to `NS(=O)(=O)c1ccc(Oc2c(-c3cccc(-c4ccccc4)c3)nn(-c3nc(C(=O)O)cs3)c2C2CC2)cc1`, the IC50 came to 110 nM in assay [2], 1920 nM on L-lactate dehydrogenase [5] and 110 nM in assay [3].
As to `NS(=O)(=O)c1ccc(Nc2cn(-c3nc(C(=O)O)cs3)nc2-c2cccc(-c3ccccc3)c2)cc1`, the IC50 in assay [2] and in assay [3] was 57 nM in each case.
As to `NS(=O)(=O)c1ccc(Cc2cn(-c3nc(C(=O)O)cs3)nc2-c2cccc(-c3ccccc3)c2)cc1`, the IC50 in assay [2] and in assay [3] was 38 nM throughout.
Take `NS(=O)(=O)c1ccc(Cc2c(-c3ccccc3)nn(-c3nc(C(=O)O)cs3)c2C2CC2)cc1`: the IC50 at L-lactate dehydrogenase [1] is 17500 nM; in assay [2] it was 19 nM; with MIA PaCa-2 [4] it was greater than 57000 nM; on L-lactate dehydrogenase [5] it was 14700 nM; in the assay on A673 [6], greater than 57000 nM; in assay [3], 19 nM.

Source of the values: ChEMBL document CHEMBL4028893, “Discovery and Optimization of Potent, Cell-Active Pyrazole-Based Inhibitors of Lactate Dehydrogenase (LDH)” (J Med Chem, 2017).
